## Yeast mating assay 1: variants of the scFv Ab-14

The target is the same throughout: PDVDLGDISGINAS, from the HR2 region of SARS-CoV-2 spike.

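The starting antibody came from a phage panning campaign against this peptide. Variants in AAYL50 differ from the parent at up to three CDR positions; double and triple changes were sampled at random. Affinity was read by AlphaSeq, a pooled yeast mating assay with surface-displayed partners. Pairs that bind mate more often; barcode pairs of the diploids are counted by sequencing. A regression on co-assayed BCL2-family reference pairs converts the normalised counts of each replicate to an apparent Kd. Each pool was mated in three replicate cultures.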

Parent: Ab-14, a human scFv built as VH, a (GGGGS)3 linker, VL. Only the CDRs of the light chain vary.
VH: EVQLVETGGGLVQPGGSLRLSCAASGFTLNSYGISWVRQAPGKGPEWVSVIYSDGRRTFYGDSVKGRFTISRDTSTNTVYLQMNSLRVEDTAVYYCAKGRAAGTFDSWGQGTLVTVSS
VL: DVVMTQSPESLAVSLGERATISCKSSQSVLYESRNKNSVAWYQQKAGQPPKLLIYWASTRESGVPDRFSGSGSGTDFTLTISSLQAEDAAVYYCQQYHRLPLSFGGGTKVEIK

Substitutions are numbered in sequence along the VL above, starting at 1 (not Kabat).
Kd is apparent (estimated from mating counts) and averaged on the log scale over replicates with a signal. Smaller is tighter.
"no signal" means that the variant was in the library but no mating with the target was seen in any replicate; the authors take this as a sign of poor binding, and no number exists.
Nonspecific signal, from three strains lacking the peptide, appeared in 18% of pairings of library AAYL50, centred on 15 µM (5% of these signals below 970 nM); values are not corrected for it.

changes | Kd (apparent) | replicates with signal
Y31V/N35R/A40K | no signal | 0/3
S33P/A40D/Q95D | 10 µM | 1/3
N37G/L100C/S103C | 44 µM | 1/3
S26R/Q27H/Q95R | no signal | 0/3
S38E/Q96A | 6.6 µM | 2/3
S28I/V29C/E61C | 380 nM | 1/3
A40F/Y97T/H98R | no signal | 0/3
S25Q/L30Q | 9.7 nM | 3/3
S28P/W56L/H98T | 17 nM | 3/3
E32N/N37T/A57Y | 810 nM | 1/3
Q27A/N37F/V39K | 2.4 µM | 1/3
K24N/S26D/S62Q | 8.7 nM | 3/3
S28E/V39A/Y97W | no signal | 0/3
L102D/S103I | 15 µM | 3/3
S58C/R60A/H98C | no signal | 0/3
V39H/L100S/P101K | no signal | 0/3
Q27W/S28P/W56I | 21 µM | 3/3
V29W/N37C/S38F | 74 µM | 2/3
R34I/T59G/R99Q | 100 nM | 3/3
S26E/Q27A/L30F | 23 nM | 3/3
S25E/N37D/W56L | 40 nM | 3/3
K36A/R60H/Q95H | 3.7 µM | 2/3

The remaining entries, values ahead:

Kd (apparent) | replicates with signal | changes
2.5 nM | 3/3 | S33E/K36T
no signal | 0/3 | K24W/S62I/Q96F
no signal | 0/3 | A57V/R60D/L100I
270 nM | 1/3 | W56Y/E61K/Q96N
no signal | 0/3 | Q27T/V29L/W56F
no signal | 0/3 | K24S/Y31C/S38K
43 nM | 3/3 | N35E/W56L/E61N
no signal | 0/3 | S38F/A40P/L100G
no signal | 0/3 | E32W/S33K/N35Y
no signal | 0/3 | S33M/K36T/A57Y
13 nM | 3/3 | Y31Q/S33A/L100G
490 nM | 3/3 | L30K/R34P/S38G
940 nM | 3/3 | S25R/S58E/P101T
32 µM | 1/3 | W56F/Q95W
2.8 µM | 3/3 | E32N/S38Y
120 nM | 3/3 | V29G/S58H/Y97W
240 nM | 3/3 | S26Q/V29N/R60K
no signal | 0/3 | Q27C/L100Q
no signal | 0/3 | A40G/T59G/S62C
15 nM | 3/3 | S26T/V29I/N37A
9.1 nM | 3/3 | A57T/S103Y
38 nM | 3/3 | S28F/W56C/S62K
5.6 µM | 3/3 | V29N/R60A/H98S

Extract of 5 entries:

changes | Kd (apparent) | replicates with signal
V39H/L100S/P101K | no signal | 0/3
Y31Q/S33A/L100G | 13 nM | 3/3
A40F/Y97T/H98R | no signal | 0/3
Q27C/L100Q | no signal | 0/3
W56Y/E61K/Q96N | 270 nM | 1/3

Reference: Engelhart et al. 2022, doi:10.1038/s41597-022-01779-4. File: FLAb, binding data.